One experiment deals with VPS35L (human) (UniProt Q7Z3J2). As to the kind of experiment: SEC; Retriever co-expressed in insect cells, affinity purification then size-exclusion chromatography (Superdex200, 25 mM HEPES pH 8.0, 300 mM NaCl, 2 mM β-mercaptoethanol, 4°C).
Experiment [1] concerns the target GFP-VPS35L(I761G) (human) (UniProt Q7Z3J2). Put plainly: co-IP; GFP-nanotrap: lysate of HEK293T cells transfected with the GFP-tagged bait, GFP-trap beads, 1 h at 4°C, quantitative western blot of endogenous partners. Background: A western blot detects proteins with antibodies after separation by electrophoresis.
Experiment [2] addresses GFP-VPS35L with complete deletion of the β-hairpin (human) (UniProt Q7Z3J2). Described as above.

Among the data in publication PMC10187114 are stoichiometry N and reduction in binding against wild type values, retold here.

As usually defined, the stoichiometry N is a count of units in the complex or per binding partner. Substance “VPS29-6xHis (from UniProt Q9UBQ0 1-182) (natural protein)” registered a stoichiometry N in the experiment with VPS35L (human) of 1. Consider “VPS29 (endogenous) (from UniProt Q9UBQ0 1-182) (natural protein)”, for which the reduction in binding against wild type in experiment [1] and in experiment [2] was above 50% throughout.
